Test results reported in patent publication US20260167623A1 (NIKANG THERAPEUTICS, INC., priority 2022, published 2026).

Target: CDK2 (Homo sapiens, UniProt P24941)
Assay: Inhibition of CDK2: phospho-Rb (S807/811) HTRF measurement in OVCAR3 cells, 24 h
Conditions: read-out: pRB_OVCAR3_24h, 24 h compound treatment
Procedure: Inhibition of CDK2: Phospho-R^b Measurement in Cells
Phosphorylation of RB protein at S807/811 were measured using HTRF phospho-RB cellular kits (Cat #64RBS807PEG) from Cisbio.
On Day 1, OVCAR3 (CDK2 dependent cell line) cells were seeded into 96-well tissue-culture treated plates at 20,000 cells/well in 200 μL and incubated overnight at 37° C. in CO2 atmosphere. On Day 2, the cells were treated with test compounds at concentrations from 0.3 to 10,000 nM using HP D300 digital dispenser. Twenty-four hours after compound treatment, cell culture media is removed by flicking the plate and tapping the plate against clean paper towel. 30 μL 1× lysis buffer was supplemented from the kit was added to each well and the plate was incubated at room temperature on shaker for 30 min. After homogenization by pipetting up and down, 8 μL cell lysate from 96-well cell culture plate was transferred to 384-well small volume white detection plate. 2 μL premixed detection solution was added and the plate was covered with sealer. […] Detection plates were incubated for 4 h at room temperature and read on ClarioStar (BMG Labtech) in TR-FRET mode ([…]). […] Half maximal inhibition concentration (IC50) values were calculated with a four-parameter logistic fit using GraphPad Prism (version 8; La Jolla, CA). […]

`Cn1nc(N2CCC(=O)NC2=O)c2ccc(C3CCN(Cc4cccc(S(=O)(=O)N5CCC(Nc6ncc(Oc7ccccc7)cn6)CC5)c4)CC3)cc21` was tested, and the IC50 was 500 to 2500 nM.
